Earlier results in publication PMC6271771, “4-Amino-substituted Benzenesulfonamides as Inhibitors of Human Carbonic Anhydrases” (Molecules, 2014).

Chains of the proteins cited; added tags and fusions are not shown. Residues count along the entry.
UniProt O43570, 30-289 limits assumed: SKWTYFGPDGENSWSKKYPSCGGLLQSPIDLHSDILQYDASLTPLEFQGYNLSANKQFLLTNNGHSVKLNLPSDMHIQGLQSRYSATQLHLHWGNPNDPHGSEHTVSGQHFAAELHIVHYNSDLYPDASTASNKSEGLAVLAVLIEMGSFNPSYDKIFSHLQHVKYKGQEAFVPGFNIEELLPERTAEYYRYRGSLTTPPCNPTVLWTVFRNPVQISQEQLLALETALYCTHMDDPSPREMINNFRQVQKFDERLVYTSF

Molecular target: CA XII (Homo sapiens, UniProt O43570)
Details: read-out: inhibition constant Ki for CA XII; previously reported; cited from earlier work

## Nc1ccc(S(N)(=O)=O)cc1 [Compound 1, 4-Aminobenzene-1-sulfonamide, reference compound]
  Ki: 37 nM
